From US7524517B2, “Methods and compositions for P2X receptor calcium entry channels and other calcium entry mechanisms” (UAB Research Foundation, priority 2003, dated 2009)

Test system: Ca^2+ entry channels
Assay: Fura-2 quenching experiment (Mn2+ entry)
Conditions: MnCl2 500 μM; zinc 10-50 μM and/or ATP 10-100 μM

Compound	Mn2+ entry (Fura-2 quenching)
Nc1ncnc2c1ncn2[C@@H]1O[C@H](COP(=O)(O)OP(=O)(O)OP(=O)(O)O)[C@@H](O)[C@H]1O [ATP, reference compound]	potent Ca^2+ entry channel agonists
[Zn+2] [zinc]	potent Ca^2+ entry channel agonists
